Test results taken from US7829520B1, “Aqueous based chemical and biological warfare decontaminating system for extreme temperature applications” (dated 2010).

Key:
[1] = Decontamination efficiency of 0.3 M PAA against chemical agent HD in mixed sulfonate μEM; details: 0.1 M HD
[2] = Decontamination efficiency of 0.3 M PAA against chemical agent GD in mixed sulfonate μEM; details: 0.1 M GD
[3] = mixed sulfonate μEM pH = 10, reaction time 0 min
[4] = mixed sulfonate μEM pH = 10, reaction time 15 min
[5] = mixed sulfonate μEM pH = 10, reaction time 30 min
[6] = mixed sulfonate μEM pH = 10, reaction time 60 min

CC(=O)OO
Percent CA Neutralized [1, 3]: 0.00%
Percent CA Neutralized [1, 4]: 98.21%
Percent CA Neutralized [1, 5]: 98.31%
Percent CA Neutralized [1, 6]: 99.15%
Percent CA Neutralized [2, 3]: 0.00%
Percent CA Neutralized [2, 4]: 99.99%
Percent CA Neutralized [2, 5]: 99.99%
Percent CA Neutralized [2, 6]: 99.99%
